## Curated experimental data: properties

Data: OPERA 2.9 data sets, kmansouri/OPERA on GitHub.

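The OPERA project collected these measurements from public sources as training and test data for property models. A listed value is a point estimate from one report or more. Method, purity and exact conditions of the single measurements are not given. Where a salt, mixture or single isomer is drawn, the source does not say that exactly this form was tested. Some entries may be limits or estimates that an upstream database listed as plain numbers.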

Melting points are in °C. The boiling point refers to atmospheric pressure (760 mmHg), by the definition of the set. The octanol-water partition coefficient is given as log10; larger values mean a more lipophilic compound. Solubility in water is on a log10 molar scale (set defined at 25 °C). Vapor pressure is log10 of mmHg; the set covers 15 to 30 °C, mostly 20 to 25 °C. The unbound fraction in human plasma runs from 0 (all bound) to 1 (all free). Clint is human hepatic intrinsic clearance in µL/min per million cells; 0 means that no clearance was seen. Cells with "n/a" have no entry in this list.

{"smiles": "C=C(C)C(=O)OC(C(F)(F)F)C(F)(F)F", "mp (°C)": "-80.15", "bp (°C)": "98.92", "log vapor pressure (log10 mmHg)": "1.565"}
{"smiles": "CCC(=O)OCc1ccccc1", "name": "Benzyl propanoate", "logP": "2.803", "log solubility (log10 mol/L)": "-2.78", "log vapor pressure (log10 mmHg)": "-1.134"}
{"smiles": "CCCCCCCCCCCCCCCC(=O)OCCOc1cccc(OCCOC(=O)CCCCCCCCCCCCCCC)c1", "mp (°C)": "83.58", "log solubility (log10 mol/L)": "-8.13", "log vapor pressure (log10 mmHg)": "-9.011"}
{"smiles": "CCN(Cc1cccc(S(=O)(=O)[O-])c1)c1ccc(C(=C2C=CC(=[N+](CC)Cc3cccc(S(=O)(=O)[O-])c3)C=C2)c2ccccc2)cc1.[Na+]", "name": "FD&C Green No. 1", "mp (°C)": "255", "log solubility (log10 mol/L)": "-1.362"}
{"smiles": "CC(C)(C)c1ccc(Nc2ccc(Nc3ccc(C(C)(C)C)cc3S(=O)(=O)[O-])c3c2C(=O)c2c(O)ccc(O)c2C3=O)c(S(=O)(=O)[O-])c1.[Na+].[Na+]", "logP": "-1", "log solubility (log10 mol/L)": "-2.886"}
{"smiles": "C=C(CC(C)(C)c1ccccc1)c1ccccc1", "name": "2,4-Diphenyl-4-methyl-1-pentene", "bp (°C)": "312.1", "log solubility (log10 mol/L)": "-6.012", "log vapor pressure (log10 mmHg)": "-3.323"}
{"smiles": "CCCCC(C#N)c1ccccc1", "stereo": "configuration not stated", "name": "2-Phenylhexanenitrile", "logP": "3.14", "log solubility (log10 mol/L)": "-3.662", "log vapor pressure (log10 mmHg)": "-1.215"}
{"smiles": "C=CC(=O)OCCC[Si](OC)(OC)OC", "name": "2-Propenoic acid, 3-(trimethoxysilyl)propyl ester", "log solubility (log10 mol/L)": "-4.606", "log vapor pressure (log10 mmHg)": "-0.813"}
{"smiles": "Cc1ccc(N)cc1O", "name": "5-Amino-2-methylphenol", "log solubility (log10 mol/L)": "-1.784", "log vapor pressure (log10 mmHg)": "-5.033"}
{"smiles": "CS(=O)(=O)c1ccc(C(=O)C2=C(Sc3ccccc3)C3CCC(C3)C2=O)c(Cl)c1", "stereo": "configuration not stated", "name": "Benzobicyclon", "log solubility (log10 mol/L)": "-6.932", "log vapor pressure (log10 mmHg)": "-6.377"}
{"smiles": "CCCCc1ccc(O)cc1O", "name": "4-Butylresorcinol", "mp (°C)": "51.5", "logP": "2.8"}
{"smiles": "C=CC(=O)OCC(CCC)CCCCC", "stereo": "configuration not stated", "logP": "6.3", "log solubility (log10 mol/L)": "-5.827", "log vapor pressure (log10 mmHg)": "0.446"}
{"smiles": "O=C1CCCCCN1", "name": "Caprolactam", "logP": "-0.035", "plasma fu": "0.761", "hepatic Clint (µL/min/10^6 cells)": "0"}
{"smiles": "C/C=C/C(=O)C1CCC(C)(C)C=C1C", "stereo": "stereo partly drawn", "name": "(E)-1-(2,4,4-Trimethyl-2-cyclohexen-1-yl)-2-buten-1-one", "mp (°C)": "-83.2", "bp (°C)": "251.3", "logP": "3.59", "log solubility (log10 mol/L)": "-3.208", "log vapor pressure (log10 mmHg)": "-1.353"}
{"smiles": "Nc1ccc(NCCO)c([N+](=O)[O-])c1", "name": "HC Red 3", "logP": "0.27", "log solubility (log10 mol/L)": "-2.191", "log vapor pressure (log10 mmHg)": "-8.78"}
{"smiles": "CCN(CC)c1ccc(N=Nc2c(C#N)cc([N+](=O)[O-])cc2C#N)c(C)c1", "mp (°C)": "220.9", "logP": "4.7", "log solubility (log10 mol/L)": "-7.473", "log vapor pressure (log10 mmHg)": "-9.319"}
{"smiles": "CCCCC(CC)COCC1CO1", "stereo": "configuration not stated", "name": "2-Ethylhexyl glycidyl ether", "logP": "3.83", "log vapor pressure (log10 mmHg)": "-0.663"}
{"smiles": "CC(=O)CCC1=C(C)CCCC1(C)C", "name": "Dihydro-beta-ionone", "logP": "4.5", "log solubility (log10 mol/L)": "-3.655", "log vapor pressure (log10 mmHg)": "-2.502"}
{"smiles": "CC(=O)N[C@H]1[C@H]([C@H](O)[C@H](O)CO)OC(C(=O)O)=C[C@@H]1NC(=N)N", "name": "Zanamivir", "logP": "-3", "log solubility (log10 mol/L)": "-1.462"}
{"smiles": "C[C@]12CCC(=O)C=C1CC[C@@H]1[C@@H]2[C@@H](O)C[C@]2(C=O)[C@@H](C(=O)CO)CC[C@@H]12", "name": "Aldosterone", "logP": "1.08", "log solubility (log10 mol/L)": "-3.85"}

Excerpt, the final 2 entries:

compound	name	mp (°C)	bp (°C)	logP	log solubility (log10 mol/L)	log vapor pressure (log10 mmHg)	plasma fu	hepatic Clint (µL/min/10^6 cells)
CC(=O)N[C@H]1[C@H]([C@H](O)[C@H](O)CO)OC(C(=O)O)=C[C@@H]1NC(=N)N	Zanamivir	n/a	n/a	-3	-1.462	n/a	n/a	n/a
C[C@]12CCC(=O)C=C1CC[C@@H]1[C@@H]2[C@@H](O)C[C@]2(C=O)[C@@H](C(=O)CO)CC[C@@H]12	Aldosterone	n/a	n/a	1.08	-3.85	n/a	n/a	n/a